Measurements from patent US8735417B2, “Aminopyrimidines as Syk inhibitors” (Merck Sharp & Dohme Corp., priority 2009, dated 2014).
pIC50: −log10 of the molar value.

Biological target: recombinant human GST-SYK (Homo sapiens, UniProt P43405)
Experiment: Homogeneous Time-Resolved Fluorescence (HTRF) assay for the recombinant human SYK enzyme
Settings: read-out: rhSYK Activity (IC50); recombinant human GST-SYK 5 pM, ATP 25 μM, 10-dose titration
Method: Homogeneous Time-Resolved Fluorescence (HTRF) Assay for the Recombinant Human SYK Enzyme:
A recombinant GST-hSYK fusion protein was used to measure potency of compounds to inhibit human SYK activity. The recombinant human GST-SYK (Carna Biosciences #08-176) (5 pM final concentration) was incubated with various concentrations of the inhibitor diluted in DMSO (0.1% final concentration) for 10 minutes at room temperature in 15 mM Tris-HCl (pH 7.5), 0.01% tween 20, 2 mM DTT in 384 well plate format. To initiate the reaction the biotinylated substrate peptide (250 nM final concentration) that contains the phosphorylation site for SYK was added with magnesium (5 mM final concentration) and ATP (25 μM final concentration). Final volume of the reaction was 10 μL. Phosphorylation of the peptide was allowed to proceed for 45′ at room temperature. To quench the reaction and detect the phosphorylated product, 2 nM of a Europium-atiti-phosphotyrosine antibody (Perkin Elmer #AD0161) and 70 nM SA-APC (Perkin-Elmer #CR130-100) were added together in 15 mM Tris pH 7.5, 40 mM EDTA, 0.01% tween 20. Final volume of the quenching solution was 10 μL. The resulting HTRF signal was measured after 30 minutes on a EnVision (Perkin-Elmer) reader using a time-resolved fluorescence protocol. IC50 was determined following 10-dose titration (10 μM to 0.508 nM) and four parameter logistic curve fitting using the Merck Assay Data Analyzer. The rhSYK activity (IC50) is expressed as +++ (100 nM or less), ++ (between 100 and 1000 nM), +(between 1 and 10 μM).

pIC50 | Compound
> 7.00 | CCN1CCC[C@@H]1CNc1ncc(-c2cccc(Nc3nccc(C(F)(F)F)n3)c2)s1
> 7.00 | FC(F)(F)c1ccnc(Nc2cccc(-c3cnc(NC[C@@H]4CCCO4)s3)c2)n1
> 7.00 | OCC(Nc1ncc(-c2cccc(Nc3nccc(C(F)(F)F)n3)c2)s1)C1CCOCC1 (centres unmarked)
> 7.00 | CN(C)C1(CNc2ncc(-c3cccc(Nc4nccc(C(F)(F)F)n4)c3)s2)CCSC1 (centres unmarked)
> 7.00 | FC(F)(F)c1ccnc(Nc2cccc(-c3cnc(N4CC=CC4)s3)c2)n1
> 7.00 | O=C(O)CC1c2ccccc2CCN1c1ncc(-c2cccc(Nc3nccc(C(F)(F)F)n3)c2)s1 (centres unmarked)
> 7.00 | CC(C)(O)C1CCCN(c2ncc(-c3cccc(Nc4nccc(C(F)(F)F)n4)c3)s2)C1 (centres unmarked)
6.00 to 7.00 | OC[C@H](COCc1ccccc1)Nc1ncc(-c2cccc(Nc3nccc(C(F)(F)F)n3)c2)s1
> 7.00 | O=C1CCCN1CCCNc1ncc(-c2cccc(Nc3nccc(C(F)(F)F)n3)c2)s1
> 7.00 | OCCC1CN(c2ncc(-c3cccc(Nc4nccc(C(F)(F)F)n4)c3)s2)CCO1 (centres unmarked)
> 7.00 | O=C1NCCN1c1ncc(-c2cccc(Nc3nccc(C(F)(F)F)n3)c2)s1
6.00 to 7.00 | CCN1CCC[C@H]1CNc1ncc(-c2cccc(Nc3nccc(C(F)(F)F)n3)c2)s1
> 7.00 | CN1CCN(c2ncc(-c3cccc(Nc4nccc(C(F)(F)F)n4)c3)s2)CCC1=O
> 7.00 | Cc1ncc(CN)c(Nc2ncc(-c3cccc(Nc4nccc(C(F)(F)F)n4)c3)s2)n1

Compound | pIC50
FC(F)(F)c1ccnc(Nc2cccc(-c3cnc(N4CCCC(C(F)(F)F)C4)s3)c2)n1 (centres unmarked) | 6.00 to 7.00
OCC1C(O)CCCN1c1ncc(-c2cccc(Nc3nccc(C(F)(F)F)n3)c2)s1 (centres unmarked) | > 7.00
OC1CN(c2ncc(-c3cccc(Nc4nccc(C(F)(F)F)n4)c3)s2)CCC1c1ccccc1 (centres unmarked) | 6.00 to 7.00

Same assay, conditions: read-out: rhSYK Activity (IC50); recombinant human GST-SYK 5 pM, ATP 25 μM, 10-dose titration; tested form: formate

pIC50 | Compound
5.00 to 6.00 | Cc1cc(Nc2nccc(C(F)(F)F)n2)cc(-c2cnc(NCc3ccc(CN4CCOCC4)cc3)s2)c1
> 7.00 | Cc1cc(Nc2nccc(C(F)(F)F)n2)cc(-c2cnc(NCc3ncnn3C)s2)c1
6.00 to 7.00 | COC(=O)CCc1ccc(CNc2ncc(-c3cc(C)cc(Nc4nccc(C(F)(F)F)n4)c3)s2)cc1
6.00 to 7.00 | Cc1cc(Nc2nccc(C(F)(F)F)n2)cc(-c2cnc(N3CCCC(c4nc(C)no4)C3)s2)c1 (centres unmarked)
> 7.00 | Cc1cc(Nc2nccc(C(F)(F)F)n2)cc(-c2cnc(NCCC3CCNCC3)s2)c1
> 7.00 | Cc1cc(Nc2nccc(C(F)(F)F)n2)cc(-c2cnc(NCCCC3C=NNC3=O)s2)c1 (centres unmarked)
> 7.00 | Cc1cc(Nc2nccc(C(F)(F)F)n2)cc(-c2cnc(NCC3CCCN(C)C3)s2)c1 (centres unmarked)
> 7.00 | Cc1cc(Nc2nccc(C(F)(F)F)n2)cc(-c2cnc(N3CCCC(Cn4ccnc4)C3)s2)c1 (centres unmarked)
> 7.00 | Cc1cc(Nc2nccc(C(F)(F)F)n2)cc(-c2cnc(N3CCC4(C3)OCCO4)s2)c1

Same assay, conditions: read-out: rhSYK Activity (IC50); recombinant human GST-SYK 5 pM, ATP 25 μM, 10-dose titration; tested form: free base

Compound | pIC50
FC(F)(F)c1ccnc(Nc2cccc(-c3cnc(N4CCc5ccccc5C4)s3)c2)n1 | 6.00 to 7.00
Cc1cc(Nc2nccc(OCC3CCOC3)n2)cc(-c2cnc(N3CCCNC(=O)C3)s2)c1 (centres unmarked) | > 7.00
Cc1cc(Nc2ncccn2)cc(-c2cnc(N3CCCNC(=O)C3)s2)c1 | > 7.00
